assay: Selectivity ratio of IC50 for human recombinant DHODH to IC50 for Plasmodium falciparum recombinant DHODH

Question: For `Cn1nc(O)c(C(=O)O)c1COc1cccc(C(F)(F)F)c1`, which Ratio IC50 is on record?
Answer: Its Ratio IC50 is greater than 71.

Question: With `Cn1nc(O)c(C(=O)O)c1COc1ccc(C(F)(F)F)cc1` as the compound, how does the Ratio IC50 read?
Answer: The Ratio IC50 was greater than 38.

Question: Which Ratio IC50 does the source give for `O=C(NCC(c1ccccc1)c1ccccc1)c1nsnc1O` here?
Answer: Its Ratio IC50 is greater than 17.
